Laboratory results: patent US9434994B2, “Methods for prediction of clinical outcome to epidermal growth factor receptor inhibitors by non-small cell lung cancer patients” (The Regents of the University of Colorado, a body corporate, priority 2004, dated 2016)

Tests used:
Assay type in all cases: cell-based, human
H827 = assay: Cetuximab sensitivity of NSCLC cell lines (IC50); conditions: H827, sensitive line
Source text: (§1) Conversely, among the 20 NSCLC lines which were resistant to Cetuximab, none had EGFR or HER2 gene amplification and only 6 had high polysomy for EGFR and/or HER2.

H3255 = assay: Cetuximab sensitivity of NSCLC cell lines (IC50); conditions: H3255, sensitive line
Source text: as §1

H2279 = assay: Cetuximab sensitivity of NSCLC cell lines (IC50); conditions: H2279, sensitive line
Source text: as §1

H358 = assay: Cetuximab sensitivity of NSCLC cell lines (IC50); conditions: H358, sensitive line
Source text: as §1

Calu 3 = assay: Cetuximab sensitivity of NSCLC cell lines (IC50); conditions: Calu 3, sensitive line
Source text: as §1

[1] = test system: 20 NSCLC lines resistant to Cetuximab; assay: Cetuximab sensitivity of NSCLC cell lines (IC50), resistant lines; conditions: 20 resistant NSCLC lines
Source text: as §1

## Cetuximab
H827
  IC50: < 1 µM
H3255
  IC50: < 1 µM
H2279
  IC50: < 1 µM
H358
  IC50: < 1 µM
Calu 3
  IC50: < 1 µM
[1]
  IC50: > 1 µM
